Results reported in publication PMC9637222, “Autoinducer-2 and bile salts induce c-di-GMP synthesis to repress the T3SS via a T3SS chaperone” (Nature Communications, 2022).

Tests used:
[1] = test system: T1, InvF/SicA complex with promoters of sopB, sopE2, and the sicAsipBCDA operon; test: EMSA: InvF/SicA binding to target promoters in presence of nucleotides; design: species or system S. Typhimurium; settings: c-di-AMP or cGMP at dose of the highest level of c-di-GMP
T1 construct: His6 (N, cleaved yes); made in house; host or cells: E. coli BL21(DE3) (pET28a-sicA, pET28a-invF)

[2] = target: T2, WP_034494714-LBD (Q208Y/E237D) (Buttiauxella agrestis, UniProt A0A085GF42, E237D/Q208Y); test: ITC: DPD/AI-2 binding to WP_034494714-LBD double mutant; settings: individual replicates, Supplementary Figure 7e
T2 sequence (A0A085GF42 27-302 Q208Y/E237D): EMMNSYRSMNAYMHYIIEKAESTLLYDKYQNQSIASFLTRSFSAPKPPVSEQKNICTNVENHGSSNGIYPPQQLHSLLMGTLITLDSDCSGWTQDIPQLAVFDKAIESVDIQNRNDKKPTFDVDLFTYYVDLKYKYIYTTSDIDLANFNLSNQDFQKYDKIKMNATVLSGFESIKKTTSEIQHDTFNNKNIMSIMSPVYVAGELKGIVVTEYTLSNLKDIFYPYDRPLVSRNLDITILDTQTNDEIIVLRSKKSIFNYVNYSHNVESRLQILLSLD

[3] = test system: promoters of sopB, sopE2, and the sicAsipBCDA operon; test: Promoter-lacZ fusion β-galactosidase assay; settings: 1 μM; for β-Galactosidase (Miller units): strain WT, Fig. 4k; for Promoter activities of sopB, sopE2, and sicAsipBCDA (in words): wild-type strain

Row | Structure (SMILES) | Effect on formation of InvF/SicA-DNA complexes (in words) [1] | β-Galactosidase (Miller units) ([3]; PsicAsipBCDA) | β-Galactosidase (Miller units) ([3]; PsopB) | β-Galactosidase (Miller units) ([3]; PsopE2) | Promoter activities of sopB, sopE2, and sicAsipBCDA (in words) [3] | other results
1 | Nc1nc2c(ncn2[C@@H]2O[C@@H]3COP(=O)(O)O[C@H]3[C@H]2O)c(=O)[nH]1 [cGMP] | did not result in an observable difference |  |  |  |  | 
2 | Nc1ncnc2c1ncn2[C@@H]1O[C@@H]2COP(=O)(O)O[C@H]3[C@@H](O)[C@H](n4cnc5c(N)ncnc54)O[C@@H]3COP(=O)(O)O[C@H]2[C@H]1O [c-di-AMP] | did not result in an observable difference |  |  |  |  | 
3 | CC(=O)C(=O)[C@@H](O)CO [DPD/AI-2, autoinducer-2] |  |  |  |  |  | n, DPD/AI-2 binding to WP_034494714-LBDQ208Y/E237D ([2]; ITC binding stoichiometry n): 1.13 and 1.19 and 1.14; Kd ([2]; read-out: Kd, DPD/AI-2 binding to WP_034494714-LBDQ208Y/E237D, ITC): 250 nM
4 | C[C@H](CCC(=O)NCCS(=O)(=O)O)[C@H]1CC[C@H]2[C@@H]3CC[C@@H]4C[C@H](O)CC[C@]4(C)[C@H]3C[C@H](O)[C@]12C [taurodeoxycholate] |  | 336.34 Miller units and 368.76 Miller units and 353.92 Miller units | 144.02 Miller units and 170.31 Miller units and 127.03 Miller units | 179.70 Miller units and 209.40 Miller units and 177.92 Miller units | strongly repressed | 
5 | C[C@H](CCC(=O)NCCS(=O)(=O)O)[C@H]1CC[C@H]2[C@@H]3[C@H](O)C[C@@H]4C[C@H](O)CC[C@]4(C)[C@H]3C[C@H](O)[C@]12C [taurocholate] |  | 422.71 Miller units and 461.77 Miller units and 405.55 Miller units | 196.10 Miller units and 210.53 Miller units and 189.80 Miller units | 286.89 Miller units and 298.06 Miller units and 241.62 Miller units | strongly repressed | 
6 | Nc1nc2c(ncn2C2OC3COP(=O)(O)OC4C(COP(=O)(O)OC3C2O)OC(n2cnc3c(=O)[nH]c(N)nc32)C4O)c(=O)[nH]1 (stereo not shown) [c-di-GMP, Cyclic di-GMP] | reduced or even abrogated |  |  |  |  | 

“And” between values parts separate entries of the source, which are not always exact repeats. Identical values can stand only once.
